The results in this text go back to US20170283685A1 (priority 2014, published 2017).

Structures can show the parent of a compound that is named as a salt. Where two headings read alike, the source gives them in different places.

For assay [1], the system named is Azospira suillum PS (nitrate reducing cells). Particulars: for IC50: read-out: IC50 of inhibitor against growth of Azospira suillum PS with NO3^−.
For assay [2], the system named is Azospira suillum PS ((per)chlorate reducing cells). As to conditions: for IC50: read-out: IC50 of inhibitor against growth of Azospira suillum PS with ClO4^−.
Assay [3] has as its system Desulfovibrio alaskensis G20. Particulars: for IC50: read-out: IC50 of inhibitor against growth of Desulfovibrio alaskensis G20 with SO4^2−.
In assay [4] the test system is Desulfovibrio alaskensis G20. The experiment in a line: microbe, parasite or virus in culture. Particulars: Oleidesulfovibrio alaskensis, G20, 48 h, read-out: IC50 of inhibitor against growth of Desulfovibrio alaskensis G20 with SO4^2−.
The test system of assay [5] is Azospira suillum PS (nitrate reducing cells). Briefly: organism not typed. As to conditions: read-out: IC50 of inhibitor against growth of Azospira suillum PS with NO3^−.
Assay [6] has as its system Azospira suillum PS ((per)chlorate reducing cells). Briefly: organism not typed. As to conditions: read-out: IC50 of inhibitor against growth of Azospira suillum PS with ClO4^−.
Where [7] appears, read: sulfate as electron acceptor, OD 600 after 48 hours, 30° C.

As for `O=S(=O)(O)O` [SO4^2−, sulfate], the IC50 (as a rule, the concentration at which inhibition is half-maximal) in assay [1] was 96.4 mM; in assay [2], 85.9 mM.
In the case of `O=[N+]([O-])O` [NO3^−, nitrate], in assay [3], the IC50 was found to be 70.4 mM.
Take `[O-][I+3]([O-])([O-])O` [IO4^−, periodate]: the values for the IC50 in assay [4], in assay [5] and in assay [6] were below 1 mM, 68.3 mM and 2.97 mM, respectively. Besides, the “Impact on nitrate respiration (% maximum growth at 48 hours)” value in assay [1] (same low concentrations, nitrate as electron acceptor, FIG. 3B) is reported as “minimal impact”. Moreover, the “IC50 of inhibitor against growth of Desulfovibrio alaskensis G20 with SO4^2−” value in assay [3] (setting [7]) is “sub-millimolar”. In addition, the “Inhibition of (per)chlorate respiration (% maximum growth at 48 hours)” value in assay [2] (lower concentrations, perchlorate as electron acceptor, FIG. 3A) was “potent inhibitors”.
Regarding `O=NO` [NO2^−, nitrite], the values for the IC50 in assay [1], in assay [3] and in assay [2] were 1.14 mM, 0.925 mM and 3.86 mM, respectively.
Regarding chlorite [ClO2^−], the IC50 in assay [1] (nitrate as electron acceptor) is 1.14 mM; in assay [3] (setting [7]), below 1 mM; in assay [2] (perchlorate as electron acceptor), 1.32 mM.
With `[O-][Cl+2]([O-])O` [ClO3^−, chlorate], the IC50 in assay [4] came to 10.4 mM.
Still for that read-out and setting: the result for `[O-][Cl+3]([O-])([O-])O` [ClO4^−, perchlorate] reads 22.2 mM.
